Data taken from patent US20070059687A1, “Process for evaluating phagocytotic function and use thereof” (priority 2001, published 2007).

Sequences of proteins named here, by UniProt entry; tags and fusion partners are left off. Residues count along the entry.
UniProt P06873, 106-384: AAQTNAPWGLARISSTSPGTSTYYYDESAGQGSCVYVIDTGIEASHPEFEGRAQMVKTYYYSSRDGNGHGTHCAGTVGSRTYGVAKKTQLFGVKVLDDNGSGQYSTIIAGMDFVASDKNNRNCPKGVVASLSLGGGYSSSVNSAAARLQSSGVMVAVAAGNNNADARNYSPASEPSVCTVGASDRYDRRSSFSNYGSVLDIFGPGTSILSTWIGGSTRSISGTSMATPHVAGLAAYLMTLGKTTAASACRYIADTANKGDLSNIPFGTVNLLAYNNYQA

Molecular target: proteinase K (Parengyodontium album, UniProt P06873)
Conditions: protease 0.2 unit/ml

## O=S(=O)(F)Cc1ccccc1 [PMSF, phenylmethylsulfonylfluoride]
  PMSF concentration at which deterioration of morphology of the leukocytes was completely suppressed: ≥ 0.1 mmol/l
Leukocyte morphology
  PMSF concentration at which effects were found: ≥ 10 µmol/L
